Test results: ChEMBL document CHEMBL1156503, “Long-acting kappa opioid antagonists disrupt receptor signaling and produce noncompetitive effects by activating c-Jun N-terminal kinase” (J Biol Chem, 2007)

Amino acid sequences for entries named in this document (tags omitted). A change or cut given only in a name is not applied to a line headed by its entry.
UniProt P45983: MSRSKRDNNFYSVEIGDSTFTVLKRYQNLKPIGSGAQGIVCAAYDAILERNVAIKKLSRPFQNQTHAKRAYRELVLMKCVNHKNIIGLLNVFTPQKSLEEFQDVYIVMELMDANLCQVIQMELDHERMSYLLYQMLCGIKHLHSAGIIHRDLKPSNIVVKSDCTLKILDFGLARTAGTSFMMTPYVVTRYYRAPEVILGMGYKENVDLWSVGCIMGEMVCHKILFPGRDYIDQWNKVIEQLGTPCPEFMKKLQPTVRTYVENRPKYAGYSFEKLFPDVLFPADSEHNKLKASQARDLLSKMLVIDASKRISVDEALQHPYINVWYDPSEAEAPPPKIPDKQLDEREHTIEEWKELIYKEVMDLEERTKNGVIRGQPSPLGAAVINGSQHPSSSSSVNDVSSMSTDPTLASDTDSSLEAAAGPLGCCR
UniProt P53779: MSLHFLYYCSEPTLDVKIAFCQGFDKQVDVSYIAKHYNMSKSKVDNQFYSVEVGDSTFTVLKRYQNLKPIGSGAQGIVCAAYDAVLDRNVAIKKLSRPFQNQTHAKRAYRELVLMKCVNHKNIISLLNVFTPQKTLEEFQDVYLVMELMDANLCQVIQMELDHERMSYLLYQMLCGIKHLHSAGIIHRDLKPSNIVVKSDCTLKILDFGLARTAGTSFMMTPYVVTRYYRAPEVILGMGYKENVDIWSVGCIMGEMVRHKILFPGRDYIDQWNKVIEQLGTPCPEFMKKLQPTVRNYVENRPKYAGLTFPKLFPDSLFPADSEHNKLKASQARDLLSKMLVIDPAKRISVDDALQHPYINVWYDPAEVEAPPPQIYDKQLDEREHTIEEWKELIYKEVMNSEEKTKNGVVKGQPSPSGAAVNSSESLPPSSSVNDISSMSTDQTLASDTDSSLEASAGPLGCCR

What was measured:
[1] = biological target: T1, c-Jun N-terminal kinase, JNK (Homo sapiens, UniProt P45983+P53779+P45984); test: Increase of JNK phosphorylation in U50488 treated HEK293 cells expressing GFP tagged kappa opioid receptor; format: cell-based
Outline: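 KOR-GFP HEK293 cells under G418, serum-starved 18 h, then concentration series for 1 h at 37 °C. Lysate (40 μg protein) immunoblotted for phospho-JNK, p54 and p46 summed, normalised to basal (100%). EC50 from nonlinear regression; n = 3–5 separate cultures.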

[2] = biological target: T1, c-Jun N-terminal kinase, JNK; test: Increase of JNK phosphorylation in U50488 treated untransfected HEK293 cells at 10 uM after 1 hr; format: cell-based
Outline: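 Untransfected HEK293 cells grown without G418, serum-starved 18 h, then ligand 10 μM for 1 h at 37 °C. Phospho-JNK immunoblot quantified as % of basal untreated control, n = 3–7.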

## CN(C(=O)Cc1ccc(Cl)c(Cl)c1)C1CCCCC1N1CCCC1 (configuration not stated)
[1]
  Intrinsic activity: 1
[2]
  Activity: inactive

Calls of active or inactive are those of the source. No cut-off for these calls is given here.
